# Assay results published in patent US20060104907A1, “Biologically potent analogues of the Dmt-Tic pharmacophore and methods of use” (Government of the U.S.A., represented by the Secretary, …, priority 2004, published 2006).
# By UniProt entry, the sequences of proteins in these tests, tags left out. Where a name states a change or a piece, a line headed by the entry shows the natural chain unless it says otherwise.
# UniProt P32300, whole entry: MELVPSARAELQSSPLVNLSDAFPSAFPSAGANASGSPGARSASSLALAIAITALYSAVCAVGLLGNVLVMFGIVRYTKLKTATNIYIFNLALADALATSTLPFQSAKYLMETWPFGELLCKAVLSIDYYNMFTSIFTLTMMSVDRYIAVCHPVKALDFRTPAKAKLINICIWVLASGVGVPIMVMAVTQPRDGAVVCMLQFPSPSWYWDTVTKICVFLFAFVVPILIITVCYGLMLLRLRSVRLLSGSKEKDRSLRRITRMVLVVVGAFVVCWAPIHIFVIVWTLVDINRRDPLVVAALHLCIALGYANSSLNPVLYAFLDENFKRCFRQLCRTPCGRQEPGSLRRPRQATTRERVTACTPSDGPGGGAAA
# Assays:
# [1] = molecular target: δ-opioid receptor (Homo sapiens, UniProt P41143); settings: Arttamangkul et al., Mol. Pharmacol. 2000; cited from earlier work
# [2] = molecular target: T1, δ-opioid receptors (Mus musculus, UniProt P32300); test: Functional bioactivity in mouse vas deferens (MVD), electrically-evoked twitch; type: cell-based; settings: agonist alone
# T1 construct: preparations of mouse vas deferens (MVD, containing δ-opioid receptors); from tissue; host or cells: mouse vas deferens
# Description: Preparations of myenteric plexus-longitudinal muscle obtained from male guinea-pig ileum (GPI, enriched in μ-opioid receptors) and preparations of mouse vas deferens (MVD, containing δ-opioid receptors) were used for field stimulation with bipolar rectangular pulses of supramaximal voltage (Melchiorri et al., Eur. J. Pharm., 195: 201-207 (1991)). Agonists were evaluated for their ability to inhibit the electrically-evoked twitch. The biological potency of the compounds was compared with that of the μ-opioid receptor agonist dermorphin in GPI and with that of the δ-opioid receptor agonist deltorphin C in MVD. The results are expressed as the IC50 values obtained from dose-response curves (Prism™, GraphPad). To evaluate antagonistic properties, compounds 2 and 3 were added to the bath and allowed to interact with tissue receptor sites 5 min before adding deltorphin C. The IC50 values (nM) represent the mean of not less than six fresh tissue samples±SE. […] IC50 and pA2 values (nM) are mean ±SE of at least six experiments conducted with fresh tissues.
substance,measurement,setting,value
"Tyr-D-Ala-Phe-Asp-Val-Val-Gly-NH2 [[D-Ala^2]deltorphin I, reference compound]",δ-selectivity,[1],"9,000"
same,Hill slope of [D-Ala2]deltorphin I log dose-response curve,[2],1.4
